ALDH1A1 inh – inhibitors of human aldehyde dehydrogenase 1A1 | P00352 | Purified ALDH1A1, NADH fluorescence, propionaldehyde substrate | Potency, µM (series often up to 75.3 µM), for inactives: at the highest dose activity, negative = inhibition, usual class: inhibitors | 220,000 tested, 7.3% active; active means well fitted inhibition curve with a large enough effect, not every such curve was filed as active; inconclusive means small, poorly fitted or top-dose-only effect, or another doubt; inactive means no such curve, though single readings can be large or run the other way;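 further: potency means the concentration at half of the fitted maximal effect; plate controls were no enzyme wells and a reference inhibitor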
JMJD2E inh – blocks human JMJD2E demethylase activity; B2RXH2; JMJD2E catalytic domain, FDH-coupled NADH fluorescence (FDH is formaldehyde dehydrogenase); Potency, µM (highest dose often 57.1 µM), for inactives: top-dose activity change, negative = inhibition, most hits filed as inhibitors; 230,000 tested, 1.6% active; AID 2147; active means well fitted inhibition curve with a large enough effect, not every such curve was filed as active; inconclusive means small, poorly fitted or top-dose-only effect, or another doubt; inactive means no such curve, though single readings can be large or run the other way;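 further: potency means the concentration at half of the fitted maximal effect; 0% = wells with enzyme and -100% = buffer wells without enzyme; nearly all actives have a fitted effect of over 50% in size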
G9a block – inhibitors of human histone lysine methyltransferase G9a. Q96KQ7. 350,000 tested, 8.8% active. Potency, µM (series often up to 102 µM), without a hit: at the top dose activity, negative = inhibition, most hits filed as inhibitors. G9a H3K9 monomethylation, AlphaScreen, 2 h; further: potency means the concentration at half of the fitted maximal effect; on the % scale 0 is the no-effect control and ±100 the full control effect; nearly all actives have a fitted effect of over 75% in size
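Quantitative HTS format: methyltransferase activity on a biotin-tagged H3K9 peptide is measured by AlphaScreen, using a rabbit anti-monomethyl-H3K9 antibody with streptavidin donor and anti-IgG acceptor beads. Final levels are 20 nM enzyme, 500 nM peptide, 20 uM SAM; 2 h RT.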
miR-21 reporter – raises the signal of a miR-21 reporter; 340,000 tested, under 10 active; HeLa miR-21 FLuc reporter, luciferase, 48 h; Potency, µM (series often up to 38.3 µM), for inactives: at the highest dose reporter change, positive = more light; active = well fitted rising curve with a large enough effect; inconclusive = small, poorly fitted or top-dose-only effect; inactive = no such curve, though single readings can be large or run the other way;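 further: % of control where 0% means no effect; miR-21 action dims this reporter so a rising signal means less miR-21 action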
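Luminescence from a firefly luciferase reporter carrying a miR-21 binding site downstream, stably expressed under a CMV promoter in HeLa cells that make miR-21 endogenously, reports miRNA modulation after 48 h compound exposure up to approximately 40uM final.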
Sfp PPTase inh – blocks B. subtilis Sfp PPTase activity. AID 1490. Q9F4F7. Biochemical Sfp PPTase activity, qHTS. hit rate 3.5% among 310,000. Potency, µM, for the others: max response, negative = inhibition, usual class: inhibitors; active = well fitted inhibition curve with a large enough effect; inconclusive = small, poorly fitted or top-dose-only effect, or another doubt; inactive = no such curve, though single readings can be large or run the other way;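 also: the enzyme is Sfp with the accession as filed and its product quenches rhodamine fluorescence; potency is read from the fitted curve at half-maximal effect; 0% = enzyme reaction without inhibitor and -100% = no enzyme wells; top concentration of the series not given in the record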
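With Hepes-Na pH 7.6 buffer containing 10 mM MgCl2, Sfp (15 nM) modified BHQ-2-YbbR (12.5 uM) using rhodamine-CoA (5 uM). Two reads 30 minutes apart at 525/598 nm yielded each well's rate.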
Lamin A splicing – LMNA splicing modulation; 200,000 tested, 0.01% active; HeLa LMNA splicing GFP/RFP minigene ratio, 48 h; AID 1487; Potency, µM (doses to about 46.1 µM), without a hit: at the top dose ratio change, negative = inhibition, usual class: inhibitors; active means well fitted inhibition curve with a large enough effect in the signal ratio, with a control signal flat, not every such curve was filed as active; inconclusive means small, poorly fitted or top-dose-only effect, or effect the other way, or a change in a side signal; the % refers to the signal ratio; further: potency means the concentration at half of the fitted maximal effect; on the % scale 0 is the no-effect control and ±100 the full control effect
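S3 HeLa cells stably expressing lamin A-EGFP splicing minigene plus DsRed2, 600 cells/well, 48 h compound exposure at 37C. Laser-scanning cytometry; analysed as GFP (500-530 nm)/RFP (575-640 nm) total intensity ratio; 0.5% DMSO vehicle.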
An asterisk follows results filed as active; ? = inconclusive; . = no result given; [ ] = another dose, or the depositor's remark. The list is not random: actives were taken first. Their share in the collection is about 13%. Unless noted, the call rests on the fitted dose curve; in most records, active means well fitted curve in the direction sought with a large enough effect; inconclusive means small, poorly fitted or top-dose-only effect, or another doubt; inactive means no such curve, though single readings can be large; an effect the other way counts as inactive or inconclusive.

cpd | molecule | ALDH1A1 inh | JMJD2E inh | G9a block | miR-21 reporter | Sfp PPTase inh | Lamin A splicing
1 | CC(C)(C)c1cc(-c2n[nH]c(=S)n2-c2ccccc2F)n[nH]1 | . | -29.5% | ? | -52.2% | 12.5% | .
2 | Cc1ccccc1-n1c(-c2ccc(=O)[nH]n2)n[nH]c1=S | 2.0% | 8.5% | 17.8µM* | 0.4% | 70.8µM* | ?
3 | Cc1ccccc1-n1c(-c2ccncc2)n[nH]c1=S | 15.8µM* | -1.3% | ? | -1.2% | ? | -8.3%
4 | O=C(Nc1ccc2oc(-c3cccc(Cl)c3Cl)nc2c1)c1cccc(Br)c1 | . | . | ? | -7.2% | . | .
5 | CC(C)n1c(-c2ccc(C(C)(C)C)cc2)n[nH]c1=S | ? | 3.9% | 2.51µM* | 3.4% | 6.1% | 29.4%
6 | CC(c1ccccc1)n1c(-c2ccc(Cl)cc2)n[nH]c1=S (stereo not given) | . | . | . | -8.9% | -8.5% | .
7 | CCc1ccccc1-n1c(-c2ccncc2)n[nH]c1=S | ? | 4.4% | 5.62µM* | 0.0% | -14.4% | ?
8 | CC(c1ccccc1)n1c(-c2ccncc2)n[nH]c1=S (stereo not given) | ? | -1.4% | 2.51µM* | 0.5% | 3.3% | 1.8%
9 | CC(C)(C)c1ccc(-c2n[nH]c(=S)n2Cc2ccccc2)cc1 | . | . | -39.4% | 19.9% | 12.9% | .
10 | COc1cccc(-c2nn[nH]n2)c1O | -4.2% | ? | 3.55µM* | -3.6% | 50.1µM* | -3.8%
11 | CN1CCN(c2ncc3c(n2)CCN(Cc2cc(Br)cs2)C3)CC1 | . | . | ? | 1.1% | . | -11.0%[46 µM]
12 | O=C(c1cccnc1)N1N=C(C2CCCCC2)CC1(O)C(F)(F)F (stereo not given) | 12.6µM* | 14.4% | . | 1.0% | 1.1% | ?

4 entries from above, ordered by their value in Lamin A splicing, falling:
cpd | molecule | ALDH1A1 inh | JMJD2E inh | G9a block | miR-21 reporter | Sfp PPTase inh | Lamin A splicing
5 | CC(C)n1c(-c2ccc(C(C)(C)C)cc2)n[nH]c1=S | ? | 3.9% | 2.51µM* | 3.4% | 6.1% | 29.4%
8 | CC(c1ccccc1)n1c(-c2ccncc2)n[nH]c1=S (stereo not given) | ? | -1.4% | 2.51µM* | 0.5% | 3.3% | 1.8%
10 | COc1cccc(-c2nn[nH]n2)c1O | -4.2% | ? | 3.55µM* | -3.6% | 50.1µM* | -3.8%
3 | Cc1ccccc1-n1c(-c2ccncc2)n[nH]c1=S | 15.8µM* | -1.3% | ? | -1.2% | ? | -8.3%

(next part)
cpd | molecule | ALDH1A1 inh | JMJD2E inh | G9a block | miR-21 reporter | Sfp PPTase inh | Lamin A splicing
13 | O=C(c1cccnc1)N1N=C2CCCCCC2C1(O)C(F)(F)F (stereo not given) | ? | 3.7% | . | -0.7% | -9.1% | .
14 | Cc1ccc(NC(N)=S)cc1C | -3.2% | -3.9% | 13.3%[59 µM] | 0.2% | 19.4% | -5.4%
15 | N#C/C(=N/Nc1ccccc1[N+](=O)[O-])C(N)=S | . | 7.4% | 1.12µM* | 0.2% | ? | .
16 | N#C/C(=N\Nc1ccc(Cl)cc1)C(N)=S | . | -6.3% | . | 21.3% | -12.6% | .
17 | N#C/C(=N\Nc1ccccc1)C(N)=S | . | ? | 1.58µM* | 22.0% | 17.8µM* | .
18 | Cc1ccc(N/N=C(\C#N)C(N)=S)cc1C | ? | ? | 2.82µM* | -15.0% | 56.2µM* | ?
19 | COc1cccc2sc(N3CCN(C(=O)CCS(=O)(=O)c4ccc(F)cc4)CC3)nc12 | . | . | -1.1%[59 µM] | 28.7% | . | -25.0%[46 µM]
20 | O=Cc1cn(-c2ccccc2)nc1-c1ccncc1 | 2.51µM* | -2.9% | -30.1% | 2.9% | 7.1% | .
21 | Cc1ccc(-c2nn(-c3ccccc3)cc2C(N)=O)o1 | ? | ? | -49.7%[12.7 µM] | -12.7% | ? | 14.4%[46 µM]
22 | C(=N\N1CCOCC1)/c1cn(-c2ccccc2)nc1-c1ccccc1 | ? | 2.8% | 50.1µM* | 1.7% | -5.3% | 3.0%[9.22 µM]
23 | Cc1ccc(-c2nn(-c3ccccc3)cc2C=O)o1 | ? | ? | 39.8µM* | 10.1% | 39.8µM* | 17.6%[46 µM]
24 | C(=N\N1CCOCC1)/c1nc(-c2ccccc2)n2ccccc12 | ? | ? | 17.8µM* | -12.9% | -20.9% | 11.5%[46 µM]
25 | O=Cc1cn(-c2ccccc2)nc1-c1ccccc1 | . | . | 73.3% | 8.9% | -1.3% | .
26 | c1ccc(-c2n[nH]c3c2oc2ccccc23)cc1 | -4.1% | . | 8.9%[59 µM] | . | -22.4% | .
27 | O=C(OCC(=O)c1ccccc1Br)c1ccccn1 | ? | ? | ? | -12.5% | 56.2µM* | 2.8%
28 | O=C(COC(=O)c1ccccn1)Nc1cccnc1Cl | . | . | 28.2µM* | . | . | .
29 | Cn1c(N)c(C(=O)COC(=O)c2ccccn2)c(=O)n(C)c1=O | -0.2% | -1.3% | 20µM* | 3.8% | 6.0% | -3.2%[46 µM]
30 | Cc1cccc(NC(=O)COC(=O)c2ccccn2)c1 | . | . | -6.9% | -6.9% | 1.0% | .
31 | Cn1c(N)c(C(=O)CSc2ccccn2)c(=O)n(C)c1=O | -7.4% | 2.2% | -3.1%[59 µM] | -57.3% | 10.6% | -3.0%
32 | Cn1c(N)c(C(=O)COC(=O)c2cncc(Br)c2)c(=O)n(C)c1=O | 11.2µM* | -17.8% | 50.1µM* | -0.3% | -1.6% | -9.5%[9.22 µM]
